This passage reports IC50 results from EP3436445B1, “HISTONE DEMETHYLASE INHIBITORS” (Celgene Quanticel Research, Inc., priority 2016, dated 2017).

The chains behind the UniProt entries cited, without tags or fusion partners. Residues count along the entry.
UniProt Q9UPP1, 37-1060: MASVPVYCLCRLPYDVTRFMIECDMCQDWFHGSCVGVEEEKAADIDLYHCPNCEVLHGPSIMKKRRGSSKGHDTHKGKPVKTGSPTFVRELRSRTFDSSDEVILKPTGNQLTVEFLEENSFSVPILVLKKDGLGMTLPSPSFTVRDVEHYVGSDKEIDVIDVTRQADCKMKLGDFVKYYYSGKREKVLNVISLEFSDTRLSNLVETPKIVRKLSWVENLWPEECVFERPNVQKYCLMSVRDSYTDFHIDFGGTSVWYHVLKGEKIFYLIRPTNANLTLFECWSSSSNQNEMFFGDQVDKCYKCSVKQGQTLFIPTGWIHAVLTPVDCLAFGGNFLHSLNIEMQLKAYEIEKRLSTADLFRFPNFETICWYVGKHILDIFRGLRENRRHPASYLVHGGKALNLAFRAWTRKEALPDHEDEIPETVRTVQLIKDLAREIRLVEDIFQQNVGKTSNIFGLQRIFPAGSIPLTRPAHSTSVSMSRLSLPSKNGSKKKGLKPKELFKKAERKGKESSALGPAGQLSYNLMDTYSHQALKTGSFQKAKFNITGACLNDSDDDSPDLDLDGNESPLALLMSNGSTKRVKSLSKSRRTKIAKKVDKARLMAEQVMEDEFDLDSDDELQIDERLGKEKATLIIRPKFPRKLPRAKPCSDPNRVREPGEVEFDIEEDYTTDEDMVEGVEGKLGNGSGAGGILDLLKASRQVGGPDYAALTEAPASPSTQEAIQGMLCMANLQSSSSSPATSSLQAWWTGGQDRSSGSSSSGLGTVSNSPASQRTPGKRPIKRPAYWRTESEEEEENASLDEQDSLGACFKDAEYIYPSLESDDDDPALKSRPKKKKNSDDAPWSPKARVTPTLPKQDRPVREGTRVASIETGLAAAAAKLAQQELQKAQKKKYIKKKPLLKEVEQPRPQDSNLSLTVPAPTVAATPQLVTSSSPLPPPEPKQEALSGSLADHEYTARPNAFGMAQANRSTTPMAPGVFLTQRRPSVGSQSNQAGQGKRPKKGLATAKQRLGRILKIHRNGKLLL

What all share (format): biochemical
One assay deals with T1, FBXL10 (Homo sapiens, UniProt Q8NHM5).
T1 construct: purchased BPS Bioscience 50120
T1 sequence (Q8NHM5 1-650): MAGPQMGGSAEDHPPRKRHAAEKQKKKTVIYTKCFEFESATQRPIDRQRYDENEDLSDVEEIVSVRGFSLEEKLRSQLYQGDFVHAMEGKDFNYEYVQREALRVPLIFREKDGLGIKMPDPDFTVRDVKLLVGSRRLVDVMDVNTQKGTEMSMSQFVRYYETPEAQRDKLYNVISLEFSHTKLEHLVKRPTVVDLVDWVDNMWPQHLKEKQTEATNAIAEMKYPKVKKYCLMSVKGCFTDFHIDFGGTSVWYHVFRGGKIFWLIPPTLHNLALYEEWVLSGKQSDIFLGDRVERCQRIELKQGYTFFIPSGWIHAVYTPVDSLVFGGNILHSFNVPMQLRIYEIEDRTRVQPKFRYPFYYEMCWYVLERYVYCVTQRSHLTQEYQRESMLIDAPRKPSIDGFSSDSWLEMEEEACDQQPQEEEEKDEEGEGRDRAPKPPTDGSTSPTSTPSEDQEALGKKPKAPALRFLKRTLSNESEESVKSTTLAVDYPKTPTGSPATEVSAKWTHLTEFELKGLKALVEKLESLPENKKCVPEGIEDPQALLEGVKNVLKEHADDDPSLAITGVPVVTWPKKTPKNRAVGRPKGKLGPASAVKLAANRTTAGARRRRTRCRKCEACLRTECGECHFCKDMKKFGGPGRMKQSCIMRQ
The assay is described as follows: FBXL10 in vitro enzyme inhibition assay (AlphaScreen). The source says: (§1) This assay determines the ability of a test compound to inhibit FBXL11, FBXL10, and PHF8 demethylase activity. Baculovirus expressed FBXL11 (GenBank Accession #NM_012308, AA1-1162) was purchased from BPS Bioscience (Cat#50102). Baculovirus expressed FBXL10 (GenBank Accession #NM_032590, AA 1-650) was purchased from BPS Bioscience (Cat #50120). Baculovirus expressed PHF8 (GenBank Accession NP_055922.1) was purchased from Active Motif (Cat#31435).
The ability of test compounds to inhibit the activity of FBXL10 was determined in 384-well plate format under the following reaction conditions: 0.3 nM FBXL10, 30 nM H3K36me2-biotin labeled peptide (Anaspec cat # 64442), 0.2 µM alpha-ketoglutaric acid in assay buffer of 50 mM HEPES, pH7.3, 0.005% Brij35, 0.5 mM TCEP, 0.2 mg/ml BSA, 50 µM sodium L-ascorbate, 5 µM ammonium iron(II) sulfate. Reaction product is determined quantitatively by AlphaScreen detection after the addition of detection reagents anti-H3K36me1 antibody, AlphaScreen® Streptavidin-coated Donor beads, and AlphaScreen® Protein A Acceptor beads in 50 mM HEPES, pH7.3, 10 mM NaCl, 0.005% Brij35, 5 mM EDTA, 2 mg/ml BSA to final 10 µg/ml beads.
The assay reaction was initiated by the following: 3 µl of the mixture of 90 nM H3K36me2-biotin labeled peptide and 0.6 µM alpha-ketoglutaric acid with 3 µl of 11-point serial diluted inhibitor in 3% DMSO are added to each well of 384 well Proxiplate (Perkin Elmer), followed by the addition of 3 µl of 0.9 nM FBXL10 to initiate the reaction. The reaction mixture is incubated at room temperature for 1 hour, and terminated by the addition of 3 µl of appropriate dilution of anti H3K36me1 antibody in 50 mM HEPES, pH7.3, 10 mM NaCl, 0.005% Brij35, 5 mM EDTA, 2 mg/ml BSA. Plates will then incubated at room temperature for 40 minutes, followed by addition of 3 µl of 50 µg/ml AlphaScreen® Streptavidin-coated Donor beads and AlphaScreen® Protein A Acceptor beads in 50 mM HEPES, pH7.3, 10 mM NaCl, 0.005% Brij35, 5 mM EDTA, 2 mg/ml BSA. Plates will then be read by EnVision Multilabel Reader in AlphaScreen mode after minimum 2 hour incubation at room temperature. The AlphaScreen signal for each well is used to determine inhibition constant (IC50).
(In Alpha technology, singlet oxygen from a donor bead excites a nearby acceptor bead.)

The target in the next assay is T2, PHF8 (Homo sapiens, UniProt Q9UPP1).
T2 construct: purchased Active Motif 31435
The assay is described as follows: PHF8 in vitro enzyme inhibition assay (TR-FRET). The settings on record: Table 3; 3 nM PHF8, H3K9me1-biotin labeled peptide.
Description: as §1
The ability of test compounds to inhibit the activity of PHF8 was determined in 384-well plate format under the following reaction conditions: 3 nM PHF8, 200 nM H3K9me1-biotin labeled peptide (Anaspec cat #64358), 0.5 µM alpha-ketoglutaric acid in assay buffer of 50 mM HEPES, pH7.3, 0.005% Brij35, 0.5 mM TCEP, 0.2 mg/ml BSA, 50 µM sodium L-ascorbate, and 5 µM ammonium iron(II) sulfate. Reaction product was determined quantitatively by TR-FRET after the addition of detection reagent Phycolink Streptavidin-allophycocyanin (Prozyme) and Europium-anti-unmodified-histone H3 lysine 9/lysine27 (H3K9/K27) antibody (PerkinElmer) in the presence of 5 mM EDTA in LANCE detection buffer (PerkinElmer) at a final concentration of 25 nM and 0.5 nM, respectively. […]
Background: Time-resolved FRET reads energy transfer from a long-lived donor to a nearby acceptor.

In the next assay the target is T3, Jarid1B (Homo sapiens, UniProt Q9UGL1).
T3 construct: purchased BPS Bioscience (or custom made by MolecularThroughput) 50121
T3 sequence (Q9UGL1 2-751): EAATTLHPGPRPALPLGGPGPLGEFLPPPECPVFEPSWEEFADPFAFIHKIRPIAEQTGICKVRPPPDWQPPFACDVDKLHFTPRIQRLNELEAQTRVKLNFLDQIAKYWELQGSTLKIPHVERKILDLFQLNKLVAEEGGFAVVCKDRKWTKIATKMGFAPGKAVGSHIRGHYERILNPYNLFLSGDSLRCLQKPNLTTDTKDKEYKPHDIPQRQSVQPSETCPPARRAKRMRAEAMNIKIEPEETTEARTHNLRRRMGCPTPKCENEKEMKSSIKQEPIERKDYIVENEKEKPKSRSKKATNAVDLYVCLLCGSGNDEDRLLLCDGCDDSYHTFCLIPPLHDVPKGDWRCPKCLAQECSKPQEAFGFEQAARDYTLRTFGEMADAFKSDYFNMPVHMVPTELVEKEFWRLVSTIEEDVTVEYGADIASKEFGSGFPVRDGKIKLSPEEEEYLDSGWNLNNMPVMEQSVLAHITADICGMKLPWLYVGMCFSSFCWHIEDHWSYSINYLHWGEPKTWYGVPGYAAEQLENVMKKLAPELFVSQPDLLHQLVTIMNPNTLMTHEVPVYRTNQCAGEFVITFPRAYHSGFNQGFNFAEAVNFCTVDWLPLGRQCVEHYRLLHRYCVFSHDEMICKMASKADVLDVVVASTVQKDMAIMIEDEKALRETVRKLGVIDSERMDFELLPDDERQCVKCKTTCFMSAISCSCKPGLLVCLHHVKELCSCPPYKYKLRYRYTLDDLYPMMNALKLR
The assay is described as follows: Jarid1B in vitro enzyme inhibition assay (TR-FRET). The conditions noted are these: Table 5; 0.8 nM Jarid1B, H3K4me3-biotin labeled peptide; read-out: JARID1B IC5. The text has this:
This assay determines the ability of a test compound to inhibit Jarid1B, JMJD2C and JMJD3 demethylase activity. Baculovirus expressed Jarid1B (GenBank Accession #NM-006618, AA 2-751) was purchased from BPS Bioscience (Cat #50121) or custom made by MolecularThroughput. Baculovirus expressed JMJD2C (GenBank Accession #BC143571, AA 2-372) was purchased from BPS Bioscience (Cat#50105). Baculovirus expressed JMJD3 (GenBank Accession #NM-001080424, AA1043-end) was purchased from BPS Bioscience (Cat#50115).
The ability of test compounds to inhibit the activity of Jarid1B was determined in 384-well plate format under the following reaction conditions: 0.8 nM Jarid1B, 300 nM H3K4me3-biotin labeled peptide (Anaspec cat #64357), 2 µM alpha-ketoglutaric acid in assay buffer of 50 mM HEPES, pH7.3, 0.005% Brij35, 0.5 mM TCEP, 0.2 mg/ml BSA, 50 µM sodium L-ascorbate, and 2 µM ammonium iron(II) sulfate. Reaction product was determined quantitatively by TR-FRET after the addition of detection reagent Phycolink Streptavidin-allophycocyanin (Prozyme) and Europium-anti-mono-or di-methylated histone H3 lysine 4 (H3K4me1-2) antibody (PerkinElmer) in the presence of 5 mM EDTA in LANCE detection buffer (PerkinElmer) at a final concentration of 25 nM and 1 nM, respectively. […]

The mark [1] stands for this setting: Table 3, 0.3 nM FBXL10, H3K36me2-biotin labeled peptide.

Compound `Cn1cnc(-c2cc(-c3c[nH]nn3)ccn2)c1` [Example 1, 2-(1-methylimidazol-4-yl)-4-(1H-triazol-4-yl)pyridine] showed an IC50 on FBXL10 (setting [1]) of 0.1 to 1 µM.

With `FC(F)(F)Cn1cnc(-c2cc3[nH]nnc3cn2)c1` [Example 43, 4-{1H-[1,2,3]triazolo[4,5-c]pyridin-6-yl}-1-(2,2,2-trifluoroethyl)-1H-imidazole], the IC50 against PHF8 lay in the range of 1 to 10 µM; against FBXL10 (setting [1]) it was 0.1 to 1 µM.

For `Cn1cnc(-c2cc3[nH]nnc3cn2)c1-c1ccc(F)cc1OCC1CC1` [Example 54, 5-[2-(cyclopropylmethoxy)-4-fluorophenyl]-1-methyl-4-{1H-[1,2,3]triazolo[4,5-c]pyridin-6-yl}-1H-imidazole], the values for the IC50 at PHF8 and on FBXL10 (setting [1]) were 1 to 10 µM and 0.1 to 1 µM, respectively.

On FBXL10 (Table 5), `CCc1ccc(CCn2cnc(-c3cc(-c4nn[nH]c4C(F)(F)F)ccn3)c2)cc1` [Example 95, 2-{1-[2-(4-ethylphenyl)ethyl]-1H-imidazol-4-yl}-4-[5-(trifluoromethyl)-1H-1,2,3-triazol-4-yl]pyridine] came in with an IC50 of 0.1 to 1 µM.

Consider `Fc1cccc2c1CCCC2Cn1cnc(-c2cc(-c3nn[nH]c3C(F)(F)F)ccn2)c1` (stereo not shown) [Example 99, 2-{1-[(5-fluoro-1,2,3,4-tetrahydronaphthalen-1-yl)methyl]-1H-imidazol-4-yl}-4-[5-(trifluoromethyl)-1H-1,2,3-triazol-4-yl]pyridine], for which the IC50 at Jarid1B is 0.1 to 1 µM.
